Data published in patent EP1903056A2, “HLA-A1, -A2 -A3, -A24, -B7, and -B44 tumor associated antigen peptides and compositions” (priority 2002, dated 2004).
Like-named read-outs stand apart in the source and are kept apart here. Values belong to the compound of their own block, whether it stands above or below them.

Key:
[1] = biological target: B*4001(B60) (Homo sapiens, UniProt P01889, A65T/A93T/A95T/D138N/D98Y/E176V/E69K/N87E/Q56L/Q94N/R180L/S121R/S35A/S48T/T167S/V36M/W171L/Y33H/Y91S); experiment: B44 supertype peptide binding, B*4001; conditions: read-out: B* 4001
[2] = biological target: B*4002 (B61) (Homo sapiens, UniProt P01889, A65T/A93T/A95T/D138N/D201E/D98Y/E176V/E204Q/E69K/K202T/N87E/Q56L/Q94N/R180L/S48T/Y33H/Y91S); experiment: B44 supertype peptide binding, B*4002; conditions: read-out: B* 4002
[3] = biological target: B*1801 (Homo sapiens, UniProt P01889, A329T/A93T/A95T/C349S/D201E/D54G/D98Y/E176V/E187T/E204Q/E69T/K202T/Q94N/R155S/R180L/S121R/V306I/Y140S/Y195H/Y33H/Y91S); experiment: B44 supertype peptide binding, B*1801
[4] = biological target: B*4403 (Homo sapiens, UniProt P01889, A223V/A65T/A93T/A95T/D201E/D98Y/E176V/E187L/E204Q/E69K/G107R/H137Y/K202T/L105A/L119I/N104T/N87E/Q56L/Q94N/R106L/R155S/R180L/S101N/S121R/S35A/S48T/T118I/V36M/W191S/Y140D/Y91S); experiment: B44 supertype peptide binding, B*4403
[5] = biological target: B*4501 (Homo sapiens, UniProt P01889, A329T/A65T/A93T/A95T/C349S/D138N/D201E/D98Y/E176V/E187L/E204Q/E69K/H137Y/K202T/L119W/N87E/Q56L/Q94N/R155S/R180D/S121R/S35A/S48T/V127L/V306I/V36M/W191S/Y140L/Y33H/Y91S); experiment: B44 supertype peptide binding, B*4501
[6] = biological target: B*4402 (Homo sapiens, UniProt P01889, A223V/A65T/A93T/A95T/D201E/D98Y/E176V/E187L/E204Q/E69K/G107R/H137Y/K202T/L105A/L119I/N104T/N87E/Q56L/Q94N/R106L/R155S/R180D/S101N/S121R/S35A/S48T/T118I/V36M/W191S/Y140D/Y91S); experiment: B44 supertype peptide binding, B*4402; conditions: read-out: B* 4402
[7] = CEA-derived B44 peptides, binding affinity, unit inferred
[8] = HER 2/neu-derived B44 peptides, Table 27
[9] = HER 2/neu-derived B44 peptides, Table 27, read-out: B* 4501
[10] = HER 2/neu-derived B44 peptides, Table 27, read-out: B* 4403
[11] = Table 29: MAGE2-derived B44 peptides

IC50 [1, 7]: 10100 nM
IC50 [2, 7]: 1450 nM
IC50 [3, 7]: 8580 nM
SMILES: CC[C@H](C)[C@H](NC(=O)[C@H](CCC(=O)O)NC(=O)[C@@H]1CCCN1C(=O)[C@H](CCC(=O)O)NC(=O)[C@@H](N)CS)C(=O)N[C@@H](CCC(N)=O)C(=O)N[C@@H](CC(N)=O)C(=O)N[C@H](C(=O)N[C@H](C(=O)O)[C@@H](C)O)[C@@H](C)O [compound 407]

IC50 [1, 7]: > 10000 nM
IC50 [2, 7]: > 10000 nM
IC50 ([4]; CEA-derived B44 peptides, binding affinity, unit inferred, read-out: B* 4403): > 10000 nM
SMILES: C[C@H](NC(=O)[C@H](CCC(=O)O)NC(=O)[C@@H]1CCCN1C(=O)[C@H](CCC(=O)O)NC(=O)[C@@H](N)CS)C(=O)N[C@@H](CCC(N)=O)C(=O)N[C@@H](CC(N)=O)C(=O)N[C@H](C(=O)N[C@H](C(=O)N[C@@H](Cc1ccc(O)cc1)C(=O)O)[C@@H](C)O)[C@@H](C)O [compound 413]

SMILES: CSCC[C@H](N)C(=O)N[C@@H](CCC(=O)O)C(=O)N[C@@H](CC(C)C)C(=O)N[C@@H](C)C(=O)N[C@@H](C)C(=O)N[C@@H](CC(C)C)C(=O)N[C@@H](CS)C(=O)N[C@@H](CCCNC(=N)N)C(=O)N[C@@H](Cc1c[nH]c2ccccc12)C(=O)NCC(=O)O [compound 472]
IC50 [1, 8]: 8680 nM
IC50 [2, 8]: 1840 nM
IC50 [3, 8]: 102 nM

SMILES: CC[C@H](C)[C@H](NC(=O)[C@H](CC(C)C)NC(=O)[C@@H](NC(=O)CNC(=O)CNC(=O)[C@H](CCCCN)NC(=O)[C@H](CC(C)C)NC(=O)[C@@H](NC(=O)[C@H](CCC(=O)O)NC(=O)[C@@H](N)[C@@H](C)O)[C@@H](C)CC)C(C)C)C(=O)O [compound 477]
IC50 [1, 8]: 241 nM
IC50 [2, 8]: 294 nM
IC50 [3, 8]: 1020 nM

SMILES: CC(C)[C@H](NC(=O)[C@H](CS)NC(=O)[C@H](CO)NC(=O)[C@H](C)NC(=O)CNC(=O)[C@H](Cc1ccccc1)NC(=O)[C@@H](NC(=O)[C@H](Cc1ccc(O)cc1)NC(=O)[C@H](CCCNC(=N)N)NC(=O)CNC(=O)[C@H](CCC(=O)O)NC(=O)[C@@H]1CCCN1)[C@@H](C)O)C(=O)O [compound 480]
IC50 [5]: 356 nM
IC50 [4]: 348 nM

SMILES: CSCC[C@H](NC(=O)[C@@H](NC(=O)[C@H](Cc1ccc(O)cc1)NC(=O)[C@H](C)NC(=O)[C@H](CCC(=O)O)NC(=O)[C@@H](N)CC(=O)O)C(C)C)C(=O)N[C@@H](C)C(=O)NCC(=O)N[C@H](C(=O)NCC(=O)O)C(C)C [compound 491]
IC50 [1, 8]: 203 nM
IC50 [5, 9]: 218 nM
IC50 [4, 10]: 5610 nM

SMILES: CC(C)C[C@H](NC(=O)[C@@H]1CCCN1C(=O)[C@H](CO)NC(=O)[C@H](CCCNC(=N)N)NC(=O)[C@@H]1CCCN1C(=O)[C@H](C)NC(=O)[C@H](CCC(=O)O)NC(=O)[C@@H](N)CCC(=O)O)C(=O)N[C@@H](C)C(=O)O [compound 499]
IC50 [1, 8]: 10700 nM
IC50 [4, 10]: 294 nM

SMILES: CSCC[C@H](NC(=O)[C@H](CC(C)C)NC(=O)[C@H](CCC(=O)O)NC(=O)[C@@H](N)Cc1c[nH]c2ccccc12)C(=O)N[C@H](C(=O)N[C@@H](Cc1ccccc1)C(=O)NCC(=O)N[C@@H](C)C(=O)N[C@@H](CCCCN)C(=O)N1CCC[C@H]1C(=O)N[C@@H](Cc1ccc(O)cc1)C(=O)O)[C@@H](C)O [compound 519]
IC50 [1, 8]: 509 nM
IC50 [2, 8]: 778 nM
IC50 [4, 10]: 75 nM
IC50 [6, 8]: 24 nM

SMILES: CC(C)C[C@H](NC(=O)[C@@H](NC(=O)[C@H](CCCCN)NC(=O)[C@@H](NC(=O)[C@H](CCCCN)NC(=O)[C@H](CCCNC(=N)N)NC(=O)[C@H](CC(C)C)NC(=O)[C@H](CCC(=O)O)NC(=O)[C@@H](N)[C@@H](C)O)C(C)C)C(C)C)C(=O)O [compound 532]
IC50 [4, 10]: 2.5 nM

SMILES: CC(C)C[C@H](NC(=O)[C@H](CC(=O)O)NC(=O)[C@H](CCCNC(=N)N)NC(=O)[C@H](Cc1c[nH]cn1)NC(=O)[C@@H](NC(=O)[C@H](CC(C)C)NC(=O)[C@H](CCCNC(=N)N)NC(=O)[C@@H](NC(=O)[C@H](CC(=O)O)NC(=O)[C@H](CCC(=O)O)NC(=O)[C@@H](N)CC(C)C)C(C)C)C(C)C)C(=O)O [compound 533]
IC50 [2, 8]: 641 nM
IC50 [5, 9]: 2380 nM
IC50 [3, 8]: 729 nM
IC50 [6, 8]: 818 nM

SMILES: CC[C@H](C)[C@H](NC(=O)[C@H](CO)NC(=O)[C@H](CCC(=O)O)NC(=O)[C@@H](N)CC(C)C)C(=O)N[C@@H](CC(C)C)C(=O)N[C@@H](CCCNC(=N)N)C(=O)N[C@@H](CCCNC(=N)N)C(=O)N[C@@H](CCCNC(=N)N)C(=O)N[C@@H](Cc1ccccc1)C(=O)N[C@H](C(=O)O)[C@@H](C)O [compound 535]
IC50 [4, 10]: 657 nM

SMILES: CC(C)C[C@H](NC(=O)[C@H](Cc1ccc(O)cc1)NC(=O)[C@H](CCC(=O)O)NC(=O)[C@@H]1CCCN1)C(=O)N[C@H](C(=O)N1CCC[C@H]1C(=O)N[C@@H](CCC(N)=O)C(=O)NCC(=O)NCC(=O)N[C@@H](C)C(=O)N[C@@H](C)C(=O)O)[C@@H](C)O [compound 540]
IC50 [2, 8]: 200 nM
IC50 [5, 9]: 4010 nM
IC50 [4, 10]: 354 nM

SMILES: CSCC[C@H](NC(=O)[C@H](CC(=O)O)NC(=O)[C@H](CC(C)C)NC(=O)[C@H](Cc1c[nH]cn1)NC(=O)[C@@H](NC(=O)[C@H](CCC(=O)O)NC(=O)[C@@H]1CCCN1)[C@@H](C)O)C(=O)N[C@@H](CC(C)C)C(=O)O [compound 542]
IC50 [1, 8]: 8390 nM
IC50 [2, 8]: 6120 nM
IC50 [3, 8]: 1950 nM

SMILES: CC[C@H](C)[C@H](NC(=O)[C@H](CCC(=O)O)NC(=O)[C@H](CCC(=O)O)NC(=O)[C@H](CC(C)C)NC(=O)[C@@H](NC(=O)[C@H](CCC(=O)O)NC(=O)[C@@H](N)Cc1ccccc1)[C@@H](C)O)C(=O)N[C@H](C(=O)NCC(=O)N[C@@H](Cc1ccc(O)cc1)C(=O)O)[C@@H](C)O [compound 552]
IC50 [4, 10]: 1680 nM

SMILES: CC(C)C[C@H](NC(=O)[C@@H](NC(=O)[C@H](CCCNC(=N)N)NC(=O)[C@H](CS)NC(=O)[C@H](CCC(=O)O)NC(=O)[C@H](CCC(=O)O)NC(=O)[C@@H](N)C(C)C)C(C)C)C(=O)N[C@@H](CCC(N)=O)C(=O)NCC(=O)O [compound 555]
IC50 [1, 8]: 8950 nM
IC50 [2, 8]: 7620 nM
IC50 [4, 10]: 305 nM

SMILES: CC(C)C[C@H](NC(=O)CNC(=O)[C@H](CCC(N)=O)NC(=O)[C@H](CC(C)C)NC(=O)[C@@H](NC(=O)[C@H](CCCNC(=N)N)NC(=O)[C@H](CS)NC(=O)[C@H](CCC(=O)O)NC(=O)[C@@H](N)CCC(=O)O)C(C)C)C(=O)O [compound 556]
IC50 [1, 8]: 7080 nM
IC50 [2, 8]: 2030 nM
IC50 [4, 10]: 434 nM
IC50 [6, 8]: 717 nM

SMILES: CC(C)C[C@H](NC(=O)[C@@H](NC(=O)[C@H](CCCCN)NC(=O)[C@@H](NC(=O)[C@H](CCCCN)NC(=O)[C@H](CCCNC(=N)N)NC(=O)[C@H](CC(C)C)NC(=O)[C@H](CCC(=O)O)NC(=O)[C@@H](NC(=O)[C@H](CCC(=O)O)NC(=O)[C@@H](N)CCCCN)[C@@H](C)O)C(C)C)C(C)C)C(=O)O [compound 560]
IC50 [2, 8]: 1870 nM
IC50 [5, 9]: 12200 nM
IC50 [3, 8]: 9530 nM
IC50 [6, 8]: 7140 nM

IC50 [1, 11]: 264 nM
IC50 [2, 11]: 46 nM
IC50 ([5]; Table 29: MAGE2-derived B44 peptides, read-out: B* 4501): 102 nM
IC50 [3, 11]: 26 nM
IC50 [6, 11]: 427 nM
SMILES: CC[C@H](C)[C@H](NC(=O)[C@H](C)NC(=O)[C@H](C)NC(=O)[C@H](CCC(N)=O)NC(=O)[C@H](Cc1ccccc1)NC(=O)[C@H](CCC(=O)O)NC(=O)[C@H](CO)NC(=O)[C@H](CCC(=O)O)NC(=O)[C@@H](N)CC(C)C)C(=O)N[C@@H](CO)C(=O)N[C@@H](CCCNC(=N)N)C(=O)N[C@@H](CCCCN)C(=O)N[C@@H](CCSC)C(=O)O [compound 646]

IC50 ([4]; Table 29: MAGE2-derived B44 peptides, read-out: B* 4403): 684 nM
SMILES: CC(C)C[C@H](NC(=O)CNC(=O)[C@H](CCC(=O)O)NC(=O)[C@@H](N)CCC(=O)O)C(=O)N[C@@H](CCC(=O)O)C(=O)N[C@@H](C)C(=O)N[C@@H](CCCNC(=N)N)C(=O)NCC(=O)N[C@@H](CCC(=O)O)C(=O)N[C@@H](C)C(=O)O [compound 694]
